{"source": "patent US6270957A", "about": "“Non-Imuunosuppressive cyclosporins and their use in the prevention and treatment of HIV infection” (Wisconsin Alumni Research Foundation, priority 1999, dated 2001)", "origin": "cited, not measured here", "settings": "in vivo; cited from earlier work"}
{"molecule": "CC(C)CN(C[C@@H](O)[C@H](Cc1ccccc1)NC(=O)O[C@H]1CCOC1)S(=O)(=O)c1ccc(N)cc1", "note": "[VS-478]", "values": [{"measurement": "bioavailability", "value": "excellent bioavailability"}]}
